## CycPeptMPDB entries from one study

Source: CycPeptMPDB (Li et al. 2023), which took these values from Kelly et al. 2021, doi:10.1021/jacs.0c06115.

PAMPA measures passive passage through an artificial lipid membrane.
Values are log10 P with P in cm/s, so -5 is more permeable than -7.

{"smiles": "CC(=O)N1CCC[C@H]1C(=O)N(C)[C@H](CC(C)C)C(=O)N[C@@H]1C(=O)N[C@@H](CC(C)C)C(=O)N[C@@H](CC(C)C)C(=O)N(C)[C@H](CC(C)C)C(=O)N(C)[C@@H](C)C(=O)N[C@@H](CC(C)C)C(=O)N2CCC[C@H]2C(=O)O[C@@H]1C", "PAMPA (log10 cm/s)": "-5.65"}
{"smiles": "CC(=O)N1CCC[C@@H]1C(=O)N(C)[C@@H](CC(C)C)C(=O)N[C@@H]1C(=O)N[C@@H](CC(C)C)C(=O)N[C@@H](CC(C)C)C(=O)N[C@@H](CC(C)C)C(=O)N[C@@H](C)C(=O)N[C@@H](CC(C)C)C(=O)N2CCC[C@H]2C(=O)O[C@@H]1C", "PAMPA (log10 cm/s)": "-6.60"}
{"smiles": "CC(=O)N1CCC[C@H]1C(=O)N(C)[C@@H](CC(C)C)C(=O)N[C@@H]1C(=O)N[C@@H](CC(C)C)C(=O)N[C@@H](CC(C)C)C(=O)N(C)[C@H](CC(C)C)C(=O)N[C@@H](C)C(=O)N[C@@H](CC(C)C)C(=O)N2CCC[C@H]2C(=O)O[C@@H]1C", "PAMPA (log10 cm/s)": "-6.15"}
{"smiles": "CC(=O)N1CCC[C@H]1C(=O)N(C)[C@@H](CC(C)C)C(=O)N[C@@H]1C(=O)N(C)[C@@H](CC(C)C)C(=O)N(C)[C@@H](CC(C)C)C(=O)N(C)[C@H](CC(C)C)C(=O)N(C)[C@@H](C)C(=O)N[C@@H](CC(C)C)C(=O)N2CCC[C@H]2C(=O)O[C@@H]1C", "PAMPA (log10 cm/s)": "-5.29"}
{"smiles": "CC(=O)N1CCC[C@H]1C(=O)N(C)[C@H](CC(C)C)C(=O)N[C@@H]1C(=O)N[C@H](CC(C)C)C(=O)N[C@H](CC(C)C)C(=O)N(C)[C@@H](CC(C)C)C(=O)N(C)[C@@H](C)C(=O)N[C@H](CC(C)C)C(=O)N2CCC[C@H]2C(=O)O[C@@H]1C", "PAMPA (log10 cm/s)": "-5.86"}
{"smiles": "CC(=O)N1CCC[C@H]1C(=O)N(C)[C@H](CC(C)C)C(=O)N[C@@H]1C(=O)N(C)[C@@H](CC(C)C)C(=O)N[C@@H](CC(C)C)C(=O)N(C)[C@@H](CC(C)C)C(=O)N(C)[C@@H](C)C(=O)N[C@@H](CC(C)C)C(=O)N2CCC[C@H]2C(=O)O[C@@H]1C", "PAMPA (log10 cm/s)": "-5.25"}
{"smiles": "CC(=O)N1CCC[C@H]1C(=O)N(C)[C@H](CC(C)C)C(=O)N[C@@H]1C(=O)N[C@@H](CC(C)C)C(=O)N(C)[C@@H](CC(C)C)C(=O)N[C@H](CC(C)C)C(=O)N[C@@H](C)C(=O)N[C@@H](CC(C)C)C(=O)N2CCC[C@H]2C(=O)O[C@@H]1C", "PAMPA (log10 cm/s)": "-6.89"}
{"smiles": "CC(=O)N1CCC[C@@H]1C(=O)N(C)[C@@H](CC(C)C)C(=O)N[C@@H]1C(=O)N(C)[C@H](CC(C)C)C(=O)N(C)[C@@H](CC(C)C)C(=O)N[C@H](CC(C)C)C(=O)N(C)[C@@H](C)C(=O)N[C@@H](CC(C)C)C(=O)N2CCC[C@@H]2C(=O)O[C@@H]1C", "PAMPA (log10 cm/s)": "-5.58"}
{"smiles": "CC(=O)N1CCC[C@@H]1C(=O)N(C)[C@H](CC(C)C)C(=O)N[C@@H]1C(=O)N[C@@H](CC(C)C)C(=O)N[C@H](CC(C)C)C(=O)N[C@H](CC(C)C)C(=O)N[C@@H](C)C(=O)N[C@@H](CC(C)C)C(=O)N2CCC[C@H]2C(=O)O[C@@H]1C", "PAMPA (log10 cm/s)": "-7.49"}
{"smiles": "CC(=O)N1CCC[C@@H]1C(=O)N(C)[C@H](CC(C)C)C(=O)N[C@@H]1C(=O)N[C@H](CC(C)C)C(=O)N[C@H](CC(C)C)C(=O)N(C)[C@@H](CC(C)C)C(=O)N(C)[C@@H](C)C(=O)N[C@H](CC(C)C)C(=O)N2CCC[C@@H]2C(=O)O[C@@H]1C", "PAMPA (log10 cm/s)": "-6.27"}
{"smiles": "CC(=O)N1CCC[C@H]1C(=O)N(C)[C@H](CC(C)C)C(=O)N[C@@H]1C(=O)N[C@@H](CC(C)C)C(=O)N[C@H](CC(C)C)C(=O)N[C@H](CC(C)C)C(=O)N(C)[C@H](C)C(=O)N[C@H](CC(C)C)C(=O)N2CCC[C@H]2C(=O)O[C@@H]1C", "PAMPA (log10 cm/s)": "-6.41"}
{"smiles": "CC(=O)N1CCC[C@H]1C(=O)N(C)[C@@H](CC(C)C)C(=O)N[C@@H]1C(=O)N[C@H](CC(C)C)C(=O)N(C)[C@@H](CC(C)C)C(=O)N(C)[C@H](CC(C)C)C(=O)N[C@H](C)C(=O)N[C@@H](CC(C)C)C(=O)N2CCC[C@H]2C(=O)O[C@@H]1C", "PAMPA (log10 cm/s)": "-5.85"}
{"smiles": "CC(=O)N1CCC[C@H]1C(=O)N(C)[C@H](CC(C)C)C(=O)N[C@@H]1C(=O)N[C@@H](CC(C)C)C(=O)N[C@H](CC(C)C)C(=O)N(C)[C@@H](CC(C)C)C(=O)N(C)[C@@H](C)C(=O)N[C@@H](CC(C)C)C(=O)N2CCC[C@H]2C(=O)O[C@@H]1C", "PAMPA (log10 cm/s)": "-5.89"}
{"smiles": "CC(=O)N1CCC[C@@H]1C(=O)N(C)[C@@H](CC(C)C)C(=O)N[C@@H]1C(=O)N(C)[C@H](CC(C)C)C(=O)N(C)[C@H](CC(C)C)C(=O)N(C)[C@@H](CC(C)C)C(=O)N(C)[C@@H](C)C(=O)N[C@@H](CC(C)C)C(=O)N2CCC[C@H]2C(=O)O[C@@H]1C", "PAMPA (log10 cm/s)": "-5.27"}
{"smiles": "CC(=O)N1CCC[C@H]1C(=O)N(C)[C@H](CC(C)C)C(=O)N[C@@H]1C(=O)N(C)[C@@H](CC(C)C)C(=O)N(C)[C@H](CC(C)C)C(=O)N[C@H](CC(C)C)C(=O)N(C)[C@H](C)C(=O)N[C@@H](CC(C)C)C(=O)N2CCC[C@H]2C(=O)O[C@@H]1C", "PAMPA (log10 cm/s)": "-5.22"}

Again, the 2 entries with the lowest PAMPA:

| structure (SMILES) | PAMPA (log10 cm/s) |
|---|---|
| CC(=O)N1CCC[C@@H]1C(=O)N(C)[C@H](CC(C)C)C(=O)N[C@@H]1C(=O)N[C@@H](CC(C)C)C(=O)N[C@H](CC(C)C)C(=O)N[C@H](CC(C)C)C(=O)N[C@@H](C)C(=O)N[C@@H](CC(C)C)C(=O)N2CCC[C@H]2C(=O)O[C@@H]1C | -7.49 |
| CC(=O)N1CCC[C@H]1C(=O)N(C)[C@H](CC(C)C)C(=O)N[C@@H]1C(=O)N[C@@H](CC(C)C)C(=O)N(C)[C@@H](CC(C)C)C(=O)N[C@H](CC(C)C)C(=O)N[C@@H](C)C(=O)N[C@@H](CC(C)C)C(=O)N2CCC[C@H]2C(=O)O[C@@H]1C | -6.89 |

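Lipid, pH, incubation time, direction and concentration are not recorded in the data file. The list need not hold all peptides of the study. Entries at the database's floor value (log10 P of -10) are not listed.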